In US12629363B2, “Prophylaxis and treatment of angioedema” (PHARVARIS GMBH, priority 2020, dated 2026):

Test: Drug-drug interaction trial with itraconazole, PK (Example 5)

Substance: hydroxyitraconazole
- mean predose plasma concentration (Ctrough) (Day 4, itraconazole 200 mg dosing): 730 ± 93.5 ng/mL
- mean predose plasma concentration (Ctrough) (Day 7, itraconazole 200 mg dosing): 1187 ± 213 ng/mL
